Experimental findings from publication doi:10.1101/2025.04.08.647777 (bioRxiv, 2025) are described below.

B1: GST-CSN3 (natural protein)
chain: MASALEQFVNSVRQLSAQGQMTQLCELINKSGELLAKNLSHLDTVLGALDVQEHSLGVLAVLFVKFSMPSVPDFETLFSQVQLFISTCNGEHIRYATDTFAGLCHQLTNALVERKQPLRGIGILKQAIDKMQMNTNQLTSIHADLCQLCLLAKCFKPALPYLDVDMMDICKENGAYDAKHFLCYYYYGGMIYTGLKNFERALYFYEQAITTPAMAVSHIMLESYKKYILVSLILLGKVQQLPKYTSQIVGRFIKPLSNAYHELAQVYSTNNPSELRNLVNKHSETFTRDNNMGLVKQCLSSLYKKNIQRLTKTFLTLSLQDMASRVQLSGPQEAEKYVLHMIEDGEIFASINQKDGMVSFHDNPEKYNNPAMLHNIDQEMLKCIELDERLKAMDQEITVNPQFVQKSMGSQEDDSGNKPSSYS
B2: GST-CSN2 (natural protein)
chain: MSDMEDDFMCDDEEDYDLEYSEDSNSEPNVDLENQYYNSKALKEDDPKAALSSFQKVLELEGEKGEWGFKALKQMIKINFKLTNFPEMMNRYKQLLTYIRSAVTRNYSEKSINSILDYISTSKQMDLLQEFYETTLEALKDAKNDRLWFKTNTKLGKLYLEREEYGKLQKILRQLHQSCQTDDGEDDLKKGTQLLEIYALEIQMYTAQKNNKKLKALYEQSLHIKSAIPHPLIMGVIRECGGKMHLREGEFEKAHTDFFEAFKNYDESGSPRRTTCLKYLVLANMLMKSGINPFDSQEAKPYKNDPEILAMTNLVSAYQNNDITEFEKILKTNHSNIMDDPFIREHIEELLRNIRTQVLIKLIKPYTRIHIPFISKELNIDVADVESLLVQCILDNTIHGRIDQVNQLLELDHQKRGGARYTALDKWTNQLNSLNQAVVSKLA
B3: GST-CSN8 (natural protein)
chain: MPVAVMAESAFSFKKLLDQCENQELEAPGGIATPPVYGQLLALYLLHNDMNNARYLWKRIPPAIKSANSELGGIWSVGQRIWQRDFPGIYTTINAHQWSETVQPIMEALRDATRRRAFALVSQAYTSIIADDFAAFVGLPVEEAVKGILEQGWQADSTTRMVLPRKPVAGALDVSFNKFIPLSEPAPVPPIPNEQQLARLTDYVAFLEN

The experiment concerns the target MBP-DIC1 (UniProt O14576). Kind of experiment: pull-down.
Consider B1, for which the binding result is “binds”.

For the molecule B2, the binding result is “binds”. As to B3, the binding result is “binds”.
